High-throughput results: PubChem, National Center for Advancing Translational Sciences (NCATS)
An excerpt weighted towards active compounds, which were near 2.4% of everything screened.
Tb PGK inh – qHTS Assay to Find Inhibitors of Phosphoglycerate Kinase | Phosphoglycerate kinase, glycosomal (Trypanosoma brucei brucei), P07378 | PGK/GAPDH coupled, Kinase-Glo luminescence, 60 min | Potency, µM (doses to about 57.5 µM), usual class: inhibitors | actives 0.043% (n = 380,000); also: nearly all actives have a fitted effect of over 60% in size
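Luminescent ATP detection (Kinase-Glo Plus) follows a 60-minute room-temperature incubation, with wells lacking PGK as controls. Buffer: 100 mM TEA (pH 7.6), 5 mM MgCl2, 0.01% Tween-20. Coupling enzyme GAPDH (100 nM final) supplies unstable 1,3-BPG in-well.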
Rango complex inh – qHTS Assay for Inhibitors of Rango (Ran-regulated importin-beta cargo) - Importin beta complex formation; Potency, µM (highest dose often 92.2 µM); Rango CFP/YFP FRET sensor + importin beta, 45 min; Importin subunit beta-1 (Homo sapiens), Q14974; actives 0.031% (n = 340,000); calls by dose curve; also: nearly all actives have a fitted effect of over 15% in size
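Inhibition scored from the CFP 486 nm/YFP 530 nm FRET ratio 45 min after adding 0.125 microM importin beta to 50 nM Rango biosensor preincubated 5 min with compound (room temperature, PBS with DTT, Tween-20, BSA). No-importin wells as positive control.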
PKM2 act – qHTS Assay for Activators of Human Muscle isoform 2 Pyruvate Kinase. Pyruvate kinase PKM (Homo sapiens), P14618. purified PKM2, Kinase-Glo ATP luminescence, activation; response scale: 0% is enzyme alone, no compound. Potency, µM (series often up to 57.5 µM), hits mostly activators. actives 0.34% (n = 260,000). AID 1631, 2009; also: nearly all actives have a fitted effect of over 55% in size
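Purified hPK-M2 (>95%) run at intermediate activity with 0.1 mM ADP and 0.5 mM PEP in 50 mM imidazole pH 7.2, KCl, MgCl2; 1 h room temperature. ATP formed read by Kinase-Glo luminescence; normalized to uninhibited and no-enzyme controls.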
Tb PFK inh-1 – qHTS Assay to Find Inhibitors of T. brucei phosphofructokinase; ATP-dependent 6-phosphofructokinase (Trypanosoma brucei brucei), O15648; T. brucei PFK, ADP-Glo luminescence; Potency, µM (series often up to 57.5 µM), hits mostly inhibitors; actives 0.17% (n = 330,000); AID 485367, 2010; also: nearly all actives have a fitted effect of over 60% in size
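In TEA buffer at pH 8.0 with 5 mM MgCl2, enzyme (1.25 nM) converted F6P (0.5 mM) and ATP (0.1 mM) for 45 min at room temperature. ADP product was read by luciferase luminescence.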
Rango dissoc inh – qHTS Assay for Inhibitors of RanGTP induced Rango (Ran-regulated importin-beta cargo) - Importin beta complex dissociation. Snurportin-1 (Homo sapiens) + GTP-binding nuclear protein Ran (Homo sapiens) + Importin …. Biochemical FRET Rango-importin beta, RanGTP-induced dissociation. Potency, µM (titrated, usually from 46.1 µM). actives 0.071% (n = 340,000). AID 540253, 2011; calls by dose curve; also: nearly all actives have a fitted effect of over 45% in size
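Compounds preincubate 5 min with complex of recombinant Rango and importin beta in PBS with 1 mM DTT. Ran (0.6 uM) loaded with 2 mM GTP plus 0.2 uM RCC1 starts dissociation; FRET is recorded 45 min later.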
ELG1 DNA repair – qHTS screen for small molecules that inhibit ELG1-dependent DNA repair in human embryonic kidney (HEK293T) cells expressing luciferase-tagged ELG1 | AID 504467, 2011 | Potency, µM (top dose mostly 46.1 µM), actives largely listed as inhibitors | HEK293T ELG1-luciferase reporter, luminescence, 16 h; DNA damage induced by 5-fluorouridine | actives 2.3% (n = 330,000); also: nearly all actives have a fitted effect of over 55% in size
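Cells (2,000 per well) received 5-fluorouridine plus test compound or DMSO and were incubated 16 hr at 37 °C, 5% CO2. Luciferase activity was read by luminescence 30 min after ONE-Glo addition; signal suppression marked inhibition of damage-induced ELG1 function.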
HeLa tox – Secondary assay for Activators of Human Pyruvate Kinase M2 isoform - Cell Titer Glo cytotoxicity assay; shares compounds with PKM2 act; HeLa viability, CellTiter-Glo ATP luminescence, 24 h; activity change, negative = cytotoxicity, % at 57.5 µM; 230 tested, under 10 active
Tb PFK KinaseGlo – Tb PFK orthogonal confirmatory assay using ATP depletion (Kinase-Glo Plus) as an alternative measure of Tb PFK activity: Hit Validation | Tb PFK enzyme, ATP depletion, Kinase-Glo Plus luminescence | actives 47% (n = 1,100) | Potency, µM (titrated, usually from 57.5 µM) | shares compounds with Tb PFK inh-1 | AID 504636, 2011; calls by dose curve; also: nearly all actives have a fitted effect of over 60% in size
Tb PFK inh-2 – Inhibitors of T. brucei phosphofructokinase: Hit Validation | shares compounds with Tb PFK inh-1 | purified T. brucei PFK, ADP-Glo luminescence, 45 min | Potency, µM (highest dose often 57.5 µM), usual class: inhibitors | actives 41% (n = 1,100) | AID 504637, 2011; also: nearly all actives have a fitted effect of over 60% in size
Each line names hits and unclear results; the compound was inactive in the other large screens (follow-up assays come after a bar, where they were run). Unless noted, calls follow the shape of the dose curve; as a rule, active = well fitted curve in the direction sought with a large enough effect; inconclusive = small, poorly fitted or top-dose-only effect, or another doubt; inactive = no such curve, though single readings can be large; an effect the other way counts as inactive or inconclusive.

The chains behind the UniProt entries cited, without tags or fusion partners.
Importin subunit beta-1 (Homo sapiens), Q14974, UniProt Q14974, whole entry, looked up: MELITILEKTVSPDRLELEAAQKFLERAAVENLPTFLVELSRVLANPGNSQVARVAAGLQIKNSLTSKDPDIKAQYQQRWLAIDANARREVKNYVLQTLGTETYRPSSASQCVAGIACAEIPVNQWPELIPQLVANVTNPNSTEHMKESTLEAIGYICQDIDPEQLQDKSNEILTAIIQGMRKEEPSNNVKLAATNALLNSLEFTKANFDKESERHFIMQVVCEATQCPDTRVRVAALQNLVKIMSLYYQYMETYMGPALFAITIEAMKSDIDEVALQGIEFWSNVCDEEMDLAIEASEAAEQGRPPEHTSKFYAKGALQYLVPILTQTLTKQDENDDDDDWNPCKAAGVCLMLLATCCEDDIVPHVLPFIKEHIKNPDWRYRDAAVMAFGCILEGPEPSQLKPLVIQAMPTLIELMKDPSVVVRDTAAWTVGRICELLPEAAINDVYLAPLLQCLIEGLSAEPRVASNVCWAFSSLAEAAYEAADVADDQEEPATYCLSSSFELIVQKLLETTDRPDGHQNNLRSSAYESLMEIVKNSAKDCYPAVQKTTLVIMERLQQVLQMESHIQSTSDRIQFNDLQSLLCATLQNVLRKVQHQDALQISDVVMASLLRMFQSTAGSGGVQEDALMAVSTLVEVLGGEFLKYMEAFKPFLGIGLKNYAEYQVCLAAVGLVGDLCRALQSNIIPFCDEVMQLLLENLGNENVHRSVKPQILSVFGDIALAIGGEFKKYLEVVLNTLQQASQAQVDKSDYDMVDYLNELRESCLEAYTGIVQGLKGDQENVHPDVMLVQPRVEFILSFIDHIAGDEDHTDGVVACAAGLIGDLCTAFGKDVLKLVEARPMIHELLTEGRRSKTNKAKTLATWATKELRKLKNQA
Pyruvate kinase PKM (Homo sapiens), P14618, UniProt P14618, whole entry, looked up: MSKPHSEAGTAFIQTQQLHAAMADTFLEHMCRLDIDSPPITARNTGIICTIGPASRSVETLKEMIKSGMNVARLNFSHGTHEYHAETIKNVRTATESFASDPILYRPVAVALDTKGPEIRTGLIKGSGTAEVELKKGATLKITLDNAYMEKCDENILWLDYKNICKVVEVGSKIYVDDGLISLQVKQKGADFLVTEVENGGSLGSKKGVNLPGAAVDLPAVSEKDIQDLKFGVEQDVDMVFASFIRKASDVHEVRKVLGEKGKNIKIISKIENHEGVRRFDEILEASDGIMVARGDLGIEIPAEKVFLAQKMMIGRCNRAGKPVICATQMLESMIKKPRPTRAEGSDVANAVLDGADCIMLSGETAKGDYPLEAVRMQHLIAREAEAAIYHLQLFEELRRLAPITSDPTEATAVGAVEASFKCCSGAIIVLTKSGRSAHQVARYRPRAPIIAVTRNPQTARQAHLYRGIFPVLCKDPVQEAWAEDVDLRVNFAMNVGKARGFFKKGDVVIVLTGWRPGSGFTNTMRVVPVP

C#CCOCCOCCOCCNc1nc(N2CCN(C(=O)CCCCCCCCCCNC(=O)[C@H]([C@@H](C)CC)n3cc(CCCCN=C(N)N)nn3)CC2)nc(N2CCN(C(=O)CCCCCCCCCCNC(=O)[C@H](CO)n3cc(CCCCCN)nn3)CC2)n1	Rango complex inh 73.1µM, Rango dissoc inh inconclusive, ELG1 DNA repair inconclusive (no result: PKM2 act)
C#C[C@]1(O)CCC2C3CCC4=C/C(=N/OCC(=O)NC(C)C(=O)NC(CCSC)C(=O)O)CC[C@]4(C)C3CC[C@@]21C (stereo partly drawn)	ELG1 DNA repair 8.2µM (no result: Tb PGK inh, PKM2 act)
C#C[C@]1(O)CC[C@H]2[C@@H]3CCC4=CC(=O)CC[C@]4(C)[C@H]3CC[C@@]21C	none
C=CCn1c(O)c(C(CC)=NCc2cccnc2)c(=O)[nH]c1=O	ELG1 DNA repair inconclusive
CCCCOCCCn1c(N)c(C(=O)OC(C)COC)c2nc3ccccc3nc21 (stereo not drawn)	Rango complex inh inconclusive, Rango dissoc inh 9.2µM, ELG1 DNA repair inconclusive
COCCCn1c(N)c(C(=O)Nc2ccccc2)c2nc3ccccc3nc21	Rango complex inh inconclusive, Rango dissoc inh inconclusive, ELG1 DNA repair 16.4µM
S=c1[nH]nc(Cn2c(-c3ccccn3)nc3ccccc32)n1-c1ccc2c(c1)OCCO2	ELG1 DNA repair inconclusive
CSc1ccc(CN2CCN(c3ccccc3C)CC2)cc1	none
CCc1ccc(CN2CCN(Cc3ccc(SC)cc3)CC2)cc1	ELG1 DNA repair 5.8µM
O=C(Nc1cccnc1)C1CCN(S(=O)(=O)c2cccs2)CC1	PKM2 act inconclusive
COc1cc(CN=C(C)c2c(O)n(C)c(=O)n(C)c2=O)cc(OC)c1	ELG1 DNA repair 13µM
CC(=NCc1ccc(F)cc1)c1c(O)n(C)c(=O)n(C)c1=O	none
Cn1ncnc2c(=O)n(C)c(=O)nc1-2	Tb PGK inh inconclusive, ELG1 DNA repair 6.51µM
CC(=O)c1cn(Cc2ccc(C#N)cc2)c2ccccc12	none (no result: Tb PGK inh)
CC(C)C(=O)c1cn(Cc2ccc(C#N)cc2)c2ccccc12	ELG1 DNA repair 18.4µM
Cc1ccc(NC(=O)Cn2cc(C(=O)c3ccccc3)c3ccccc32)c(C)c1	none (no result: Rango complex inh, PKM2 act, Tb PFK inh-1, Rango dissoc inh, ELG1 DNA repair)
Cc1ccc(NC(=O)Cn2sc3nc(C)cc(C)c3c2=O)c(Cl)c1	PKM2 act 3.55µM, Tb PFK inh-1 10.7µM, ELG1 DNA repair inconclusive | HeLa tox inconclusive | Tb PFK KinaseGlo inconclusive | Tb PFK inh-2 6.01µM
C=C(CC1(C(C)NP(=O)(c2ccccc2)c2ccccc2)CC1)c1ccccc1 (stereo not drawn)	none (no result: Tb PGK inh, Rango complex inh, Tb PFK inh-1, Rango dissoc inh, ELG1 DNA repair)
